From ChEMBL document CHEMBL1141918 (Bioorg Med Chem Lett, 2005)

By UniProt entry, the sequences of proteins in these tests, tags left out. Where a name states a change or a piece, a line headed by the entry shows the natural chain unless it says otherwise.
UniProt P00915: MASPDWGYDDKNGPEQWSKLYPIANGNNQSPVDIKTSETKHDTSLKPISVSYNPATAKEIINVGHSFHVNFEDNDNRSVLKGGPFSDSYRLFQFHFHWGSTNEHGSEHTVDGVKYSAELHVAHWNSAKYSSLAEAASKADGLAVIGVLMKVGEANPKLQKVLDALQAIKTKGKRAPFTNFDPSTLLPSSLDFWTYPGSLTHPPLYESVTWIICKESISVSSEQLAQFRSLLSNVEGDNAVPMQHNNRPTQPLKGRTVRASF
UniProt P22748: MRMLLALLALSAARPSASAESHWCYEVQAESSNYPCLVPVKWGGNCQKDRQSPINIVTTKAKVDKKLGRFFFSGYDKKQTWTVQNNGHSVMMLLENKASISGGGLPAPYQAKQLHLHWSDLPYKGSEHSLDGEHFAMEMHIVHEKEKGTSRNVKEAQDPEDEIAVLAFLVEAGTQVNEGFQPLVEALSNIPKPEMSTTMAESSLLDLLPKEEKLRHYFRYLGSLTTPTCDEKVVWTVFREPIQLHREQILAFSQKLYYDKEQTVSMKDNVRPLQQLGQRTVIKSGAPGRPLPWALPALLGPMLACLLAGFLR

Experiments:
[1] = target: Carbonic anhydrase 1 (Homo sapiens, UniProt P00915); assay: Inhibitory constant against human isozyme carbonic anhydrase I for the CO2 hydration reaction at 20 degree C
[2] = target: Carbonic anhydrase 4 (Homo sapiens, UniProt P22748); assay: Inhibitory constant against human isozymes carbonic anhydrase IV for the CO2 hydration reaction at 20 degree C
[3] = target: Carbonic anhydrase 9 (Homo sapiens, UniProt Q16790); assay: Inhibitory constant against human isozymes carbonic anhydrase IX for the CO2 hydration reaction at 20 C

| Substance | Ki [1] [µM] | Ki [2] [µM] | Ki [3] [µM] |
| --- | --- | --- | --- |
| [Au(CN)2] | 7.7 |  |  |
| [Cu(CN)2]- | 6.9 | 9.8 |  |
| [NbF7]2 |  |  | 100 |
